These are literature values, as cited in publication PMC3495162 (Journal of medicinal chemistry, 2012).

The chains behind the UniProt entries cited, without tags or fusion partners.
UniProt P10415, whole entry: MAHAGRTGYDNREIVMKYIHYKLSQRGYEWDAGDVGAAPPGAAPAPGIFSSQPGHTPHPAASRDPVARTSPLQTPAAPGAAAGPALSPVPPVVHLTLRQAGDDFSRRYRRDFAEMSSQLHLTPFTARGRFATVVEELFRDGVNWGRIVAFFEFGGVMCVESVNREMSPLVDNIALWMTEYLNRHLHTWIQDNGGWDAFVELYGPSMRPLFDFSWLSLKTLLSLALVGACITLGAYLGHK

What is called Ki is the dissociation constant of the complex between target and ligand, obtained from inhibition or displacement.

This series deals with Bcl-2 (Homo sapiens, UniProt P10415). The note with it: read-out: Bcl-2 Ki; cited from earlier work.

The structures appear in SMILES notation.

For `CC1(C)CCC(c2ccc(Cl)cc2)=C(CN2CCN(c3ccc(C(=O)NS(=O)(=O)c4ccc(N[C@H](CCN5CCOCC5)CSc5ccccc5)c(S(=O)(=O)C(F)(F)F)c4)cc3)CC2)C1` [Compound 2], the Ki was less than 1 nM.
